Measured values published in PubChem BioAssay (Tox21).
Where “and” joins values, the source holds several entries; their conditions need not be identical. Equal values may be shown once. The list shows a part of the results, in another mix than the full data. Results filed as inconclusive are left out. Calls of active or inactive are those of the source. Calls follow the shape of the dose curve; as a rule, active = well fitted cell-killing curve with a large enough effect in the repeat runs; inconclusive = weak or mixed curves, or effect the other way; inactive = no such curve, though single readings can be large or run the other way.

Experiment: qHTS assay to identify small molecule agonists of the RXR signaling pathway - cell viability counter screen (AID 1159529); also: nearly all actives have a fitted effect of over 50% in size
Conditions: RXR-alpha-bla HEK293T viability, CellTiter-Glo, 16 h; at 35.3 µM (top of the series)
Source text: National Center for Advancing Translational Sciences [NCATS]
NIH Chemical Genomics Center [NCGC]
U.S. Environmental Protection Agency [EPA]
National Institutes of Environmental Health Sciences [NIEHS]
National Toxicology Program [NTP]
U.S. Food and Drug Administration [FDA]
The Retinoid X receptor (RXR), a nuclear hormone receptor expressed in liver, spleen, placenta, epidermis, central nervous system. These receptors are able to form homo and heterodimers with other nuclear receptors and due to this heterodimerizing ability, RXR functions as master regulators producing diverse physiological effects. Three subtypes of RXR exist; alpha, beta and gamma. Retinoid X receptor alpha (RXR-alpha) has potential roles in metabolic signaling pathways, skin alopecia, dermal cysts, cardiac development, insulin sensitization etc. Therefore screening environmental chemicals on RXR-alpha signaling can be used for the studies focused on such therapeutic applications. For quantification of RXR-alpha ligands signaling, GeneBLAzer RXR alpha-UAS-bla HEK 293T (Life Technologies, Carlsbad, CA) cells containing a beta-lactamase reporter-gene under control of Retinoid X receptor-alpha response element were used to screen Tox21 10K library. The cytotoxicity of the Tox21 compound library against the RXR-alpha HEK 293T cell line was tested in parallel by measuring cell viability using CellTiter-Glo assay (Promega Corporation, Madison, WI) in the same wells.
Tox21 Assay Protocol Summary:
RXR-alpha HEK 293T cells were dispensed at 2,000 cells/6 uL of assay medium containing 2% charcoal-stripped FBS using a Multidrop Combi (ThermoFisher Scientific, Waltham, MA) dispenser. The assay was performed in black wall/clear-bottom 1536-well plates (Greiner Bio-One North America Inc. Monroe, NC). Tetraoctyl ammonium bromide was used as a positive control in the cytotoxicity screen. After the assay plates were incubated at 37 C and 5% CO2 for 5 hr, 23 nL of compounds dissolved in DMSO, positive control or DMSO only were transferred to the assay plate by a Pintool station (Kalypsys, San Diego, CA). The assay plates were incubated at 37 C and 5% CO2 for 16 hr. One uL of LiveBLAzer B/G FRET substrate (Life Technologies) was added using a Flying Reagent Dispenser (FRD) (Aurora Discovery, San Diego, CA) and the plates were incubated at room temperature for 2 hr. Fluorescence intensity (405 nm excitation, 460/530 nm emission) was measured using an Envision plate reader (PerkinElmer, Shelton, CT). For cytotoxicity, 4 uL/well of CellTiter-Glo reagent was added into the assay plates using an FRD. After 30 min incubation at room temperature, the luminescence intensity was measured using a ViewLux plate reader (PerkinElmer).
% is scaled to controls: 0 for no effect and ±100 for the full control effect.

| Structure (SMILES) | activity change, negative = cytotoxicity |
| --- | --- |
| OCCSCCO | inactive: -0.844% |
| CCOP(=O)(CC)Oc1ccc([N+](=O)[O-])cc1 (centres undefined) | inactive: -2.32% |
| C/C1=C2N=C(/C=C3N=C(/C(C)=C4\[N-][C@@](C)([C@@H]5N=C1[C@](C)(CCC(=O)NC[C@@H](C)OP(=O)([O-])O[C@H]1[C@@H](O)[C@@H](n6cnc7cc(C)c(C)cc76)O[C@@H]1CO)[C@H]5CC(N)=O)[C@@](C)(CC(N)=O)[C@@H]4CCC(N)=O)[C@@](C)(CC(N)=O)[C@@H]\3CCC(N)=O)C(C)(C)[C@@H]/2CCC(N)=O.[C-]#N.[Co+3] | inactive: -2.68% |

Same assay, conditions: RXR-alpha-bla HEK293T viability, CellTiter-Glo, 16 h; at 76.8 µM (top of the series)

| Structure (SMILES) | activity change, negative = cytotoxicity |
| --- | --- |
| CCOP(=O)(CC)OCC | inactive: -4.36% |
| CP(=O)(O)OCCC[Si](O)(O)O | inactive: 10.2% |
| CC(C)OP(C)(=O)OC(C)C | inactive: 14.3% and inactive: -1.22% |
| OCCSCCO | inactive: -8.04% |
| O=[N+]([O-])OCC(CO[N+](=O)[O-])(CO[N+](=O)[O-])CO[N+](=O)[O-] | inactive: 3.26% |
| N#CBr | inactive: -3.07% |
| Cc1c([N+](=O)[O-])cccc1[N+](=O)[O-] | inactive: 24.5% and inactive: -1.7% |
| Cc1ccc([N+](=O)[O-])cc1[N+](=O)[O-] | inactive: -2.52% and inactive: 4.34% |
| [NH4+].[O-][Cl+3]([O-])([O-])[O-] | inactive: 0.758% and inactive: 2.77% |
| COP(C)(=O)OC | inactive: -0.229% and inactive: -2.67% |
| O=[N+]([O-])[O-].[NH4+] | inactive: 12.7% and inactive: 6.04% |
| CC(C)N(CCO)C(C)C | inactive: 1.19% |
| N=C(N)N[N+](=O)[O-] | inactive: 4.01% |
| O=[N+]([O-])c1cccc([N+](=O)[O-])c1 | inactive: 12.7% |
| COc1ccc([N+](=O)[O-])cc1[N+](=O)[O-] | inactive: -5.05% |
| CCN(CC)CCCl | inactive: -18.2% |
